“And” between values parts separate entries of the source, which are not always exact repeats. Equal values may be shown once. Only a part is listed here, and it is no random draw. Inconclusive results are not listed. The source made the active and inactive calls. Unless noted, calls come from the whole dose curve; as a rule, active = well fitted curve in the direction sought with a large enough effect in the repeat runs; inconclusive = weak or mixed curves; inactive = no such curve, though single readings can be large; an effect the other way counts as inactive or inconclusive.
Columns and labels:
[1] = qHTS assay to identify small molecule antagonists of the farnesoid-X-receptor (FXR) signaling pathway - cell viability counter screen (AID 743221; active = well fitted cell-killing curve with a large enough effect in the repeat runs, not every such curve was filed as active; note: % is set by controls: 0 for no effect and ±100 for the full control effect; nearly all actives have a fitted effect of over 50% in size); conditions: FXR-bla HEK293T viability, CellTiter-Glo luminescence, 16 h; at 62.6 µM (top of the series)
Summary of the method: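 Cytotoxicity counter screen run in the FXR-bla reporter wells: HEK 293T cells exposed to compound with 50 uM (final) chenodeoxycholic acid for 16 h, 37 C, then viability measured by CellTiter-Glo luminescence after 30 min, room temperature.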

Sequences of proteins named here, by UniProt entry; tags and fusion partners are left off.
UniProt P11473, whole entry: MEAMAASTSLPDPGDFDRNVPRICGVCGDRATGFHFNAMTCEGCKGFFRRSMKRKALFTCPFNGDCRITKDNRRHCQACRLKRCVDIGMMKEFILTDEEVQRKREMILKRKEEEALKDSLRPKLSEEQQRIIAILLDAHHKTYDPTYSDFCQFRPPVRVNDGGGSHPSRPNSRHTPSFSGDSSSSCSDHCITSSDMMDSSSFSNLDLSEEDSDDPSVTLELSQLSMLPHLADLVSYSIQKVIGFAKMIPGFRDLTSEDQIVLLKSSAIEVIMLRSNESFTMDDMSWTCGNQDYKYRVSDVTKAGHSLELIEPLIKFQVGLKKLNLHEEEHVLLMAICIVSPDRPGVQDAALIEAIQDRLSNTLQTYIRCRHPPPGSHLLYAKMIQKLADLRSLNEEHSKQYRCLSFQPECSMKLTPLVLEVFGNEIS

[2] = qHTS assay to identify small molecule agonists of the NFkB signaling pathway - cell viability counter screen (AID 1159515; calls by dose curve; note: % is set by controls: 0 for no effect and ±100 for the full control effect; nearly all actives have a fitted effect of over 55% in size); conditions: NFkB-bla ME-180 viability, CellTiter-Glo luminescence, 5 h
Summary of the method: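 Cells are seeded (2,000 NFkB-bla ME-180 per well), rested overnight, and dosed with DMSO-dissolved compounds for 5 hr at 37 C. Viability is then read by CellTiter-Glo luminescence after 30 min at room temperature.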

[3] = qHTS assay to identify small molecule agonists of the endoplasmic reticulum stress response signaling pathway (AID 1159516; active = well fitted activation curve with a large enough effect in the signal ratio in the repeat runs, not every such curve was filed as active; the % refers to the signal ratio; note: % is set by controls: 0 for no effect and ±100 for the full control effect); conditions: ESRE-bla HeLa, ER stress beta-lactamase reporter, 5 h; at 61 µM (top of the series)
Summary of the method: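 Cells are seeded at 1,500 per well and incubated overnight. Compounds in DMSO are added for 5 hr at 37 C, then beta-lactamase FRET substrate for 2 hr at room temperature, and fluorescence at 460 and 530 nm is measured.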

[4] = qHTS assay to identify small molecule agonists of the endoplasmic reticulum stress response signaling pathway - cell viability counter screen (AID 1159517; calls by dose curve;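 note: HeLa cells carrying an ER stress response element beta-lactamase reporter; % is set by controls: 0 for no effect and ±100 for the full control effect; nearly all actives have a fitted effect of over 50% in size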); conditions: ESRE-bla HeLa viability, CellTiter-Glo luminescence, 5 h; at 61 µM (top of the series)
Summary of the method: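 Steps: seed 1,500 ESRE-bla HeLa cells per well; incubate overnight at 37 C, 5% CO2; add compounds in DMSO for 5 hr; run FRET substrate 2 hr RT; add CellTiter-Glo, wait 30 min, read luminescence.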

[5] = qHTS assay to identify small molecule antagonists of the retinoid-related orphan receptor gamma (ROR-gamma) signaling pathway - cell viability counter screen (AID 1159520); conditions: Tet-on RORgamma CHO cells viability, ATP luminescence, 16 h; at 92.4 µM (top of the series) unless noted; note: % is set by controls: 0 for no effect and ±100 for the full control effect; nearly all actives have a fitted effect of over 50% in size
Summary of the method: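 Tet-on ROR gamma CHO cells were given compounds for 2 hr, then doxycycline hyclate at 1 uM final, and incubated 16 hr at 37 C. Viability was measured as ATP content by CellTiter-Glo luminescence.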

[6] = target: Nuclear receptor ROR-gamma (Homo sapiens) (UniProt P51449); assay: qHTS assay to identify small molecule antagonists of the retinoid-related orphan receptor gamma (ROR-gamma) signaling pathway (AID 1159521;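 note: CHO cells with doxycycline inducible ROR-gamma driving an RORE luciferase reporter; top concentration of the series differs between compounds; % is set by controls: 0 for no effect and ±100 for the full control effect; nearly all actives have a fitted effect of over 50% in size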); conditions: Tet-on RORgamma CHO cells, RORE-luciferase, 16 h; at 92.4 µM (top of the series)
[7] = qHTS assay to identify small molecule agonists of the AP-1 signaling pathway - cell viability counter screen (AID 1159525; calls by dose curve; note: nearly all actives have a fitted effect of over 55% in size); conditions: ME-180 AP-1-bla cells viability, ATP luminescence, 5 h; at 76.8 µM (top of the series) unless noted
Summary of the method: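 Same-well cytotoxicity counter screen of the Tox21 10K library in ME-180 cells. The readout is ATP-dependent luminescence after 5 h compound treatment. Data are normalised to DMSO and tetra n-octyl ammonium bromide controls.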

[8] = qHTS assay to identify small molecule agonists of the AP-1 signaling pathway (AID 1159526; calls by dose curve; note: % is set by controls: 0 for no effect and ±100 for the full control effect); conditions: ME-180 (cervical carcinoma) AP-1-bla reporter, beta-lactamase FRET ratio, 5 h
[9] = qHTS assay to identify small molecule agonists of the RXR signaling pathway - cell viability counter screen (AID 1159529); conditions: RXR-alpha-bla HEK293T viability, CellTiter-Glo, 16 h
Summary of the method: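 CellTiter-Glo luminescence gave viability in the wells also read for beta-lactamase. Cells (RXR-alpha-UAS-bla HEK 293T, 2% charcoal-stripped FBS medium) had 5 hr plating, then 16 hr compound exposure at 37 C; tetraoctyl ammonium bromide served as positive control.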

[10] = qHTS assay to identify small molecule antagonists of the retinoid acid receptor (RAR) signaling pathway - cell viability counter screen (AID 1159551); conditions: C3RL4 cells viability, ATP luminescence (CellTiter-Glo), 6 h; at 92.4 µM (top of the series) unless noted; note: % is set by controls: 0 for no effect and ±100 for the full control effect; nearly all actives have a fitted effect of over 35% in size
Summary of the method: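 Cells (C3RL4) are plated, incubated overnight, dosed with compound in DMSO, then given retinol at 1 uM final. After 6 h at 37 C, CellTiter-Glo is added and luminescence read following 30 min at room temperature.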

[11] = qHTS assay to identify small molecule agonists of the retinoic acid receptor (RAR) signaling pathway (AID 1159553); conditions: C3RL4 RARE luciferase reporter, agonist, 6 h; note: % is set by controls: 0 for no effect and ±100 for the full control effect
Summary of the method: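 Seed C3RL4 reporter cells at 1,000 per well and incubate overnight at 37 C. Add compounds in DMSO, incubate 6 hr. Add luciferase reagent, wait 30 min at room temperature, read luminescence.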

[12] = target: Vitamin D3 receptor (Homo sapiens) (UniProt P11473); assay: qHTS assay to identify small molecule antagonists of the vitamin D receptor (VDR) signaling pathway (AID 743223; active = well fitted inhibition curve with a large enough effect in the signal ratio in the repeat runs, not every such curve was filed as active; the % refers to the signal ratio; note: % is set by controls: 0 for no effect and ±100 for the full control effect); conditions: VDR-UAS-bla HEK293T, beta-lactamase FRET ratio, 16 h; at 61 µM (top of the series)
Summary of the method: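 Antagonist mode: compound added to VDR-bla cells alongside agonist 1alpha,25-dihydroxyvitamin D3 (3 nM final), incubation 16 h at 37C. Read-out is LiveBLAzer FRET fluorescence, 2 h at room temperature.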

[13] = qHTS assay to identify small molecule antagonists of the vitamin D receptor (VDR) signaling pathway - cell viability counter screen (AID 743225); conditions: VDR-bla HEK293T viability, CellTiter-Glo luminescence, 16 h; at 61 µM (top of the series)
Summary of the method: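 Cytotoxicity counter screen read by CellTiter-Glo luminescence (30 min, room temperature) in the same wells as the VDR-bla antagonist readout. HEK 293T VDR-UAS-bla cells had 16 h at 37C with compound and 3 nM (final) 1-alpha,25-dihydroxyvitamin D3, then 2 h with FRET substrate.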

[14] = qHTS assay to identify small molecule antagonists of the retinoic acid receptor (RAR) signaling pathway (AID 1159552); conditions: C3RL4 RARE luciferase reporter, retinol-stimulated, 6 h
Summary of the method: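 Luminescent RARE reporter read-out in C3RL4 cells: 6 hr co-treatment at 37 C of test compounds with retinol at 1 uM final. Cells plated overnight beforehand; luciferase reagent incubated 30 min at room temperature before reading.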

[15] = qHTS assay to identify small molecule antagonists of the estrogen related receptor (ERR) signaling pathway - cell viability counter screen (AID 1224818); conditions: ERR reporter cell line viability counter screen; at 92.2 µM (top of the series); note: % is set by controls: 0 for no effect and ±100 for the full control effect
Summary of the method: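 ERR cells, 2,000/well; 6 h settle at 37 C/5% CO2; compound pin transfer (DMSO); 17.5 h at 37 C; CellTiter-Fluor, 30 min, fluorescence read.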

[16] = qHTS assay to identify small molecule antagonists of the estrogen related receptor (ERR) signaling pathway (AID 1224819); conditions: ERR reporter cell line, luciferase inhibition; at 92.2 µM (top of the series)
Summary of the method: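 qHTS in ERR cells, 2,000/well, 1536 format. Cpd (DMSO) added after 6 h settle, 18 h 37 C. One-Glo luminescence, 30 min RT.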

[17] = qHTS assay to identify small molecule agonists of the estrogen related receptor (ERR) signaling pathway (AID 1224820); conditions: ERR reporter cell line, luciferase agonist mode; at 92.2 µM (top of the series); note: % is set by controls: 0 for no effect and ±100 for the full control effect
Summary of the method: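 Luminescence readout (One-Glo, 30 min RT) from NTP-supplied ERR cell line exposed to compounds for 18 h at 37 C. Cells seeded 2,000 per well and pre-incubated 6 h before pin-tool compound transfer.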

[18] = tested on: estrogen-related receptor alpha (ERRalpha) with PGC-1alpha coactivator, human; assay: qHTS assay to identify small molecule antagonists of the estrogen related receptor signaling pathway with the pleiotropic PPARgamma coactivator (PGC) (AID 1224821; calls by dose curve); conditions: ERR/PGC reporter cell line, luciferase, antagonist mode; at 92.2 µM (top of the series)
Summary of the method: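 PGC/ERR reporter cells; 6 h pre-incubation 37 C/5% CO2; pin-tool compound in DMSO, 18 h 37 C; One-Glo added, 30 min RT; luminescence read. qHTS antagonist mode.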

[19] = qHTS assay to identify small molecule antagonists of the estrogen related receptor signaling pathway with the pleiotropic PPARgamma coactivator (PGC) cell viability counter screen (AID 1224822); conditions: ERR/PGC reporter cell line viability counter screen; at 92.2 µM (top of the series)
Summary of the method: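 Multiplexed viability counter screen run in PGC/ERR cells treated with compounds for 17.5 h at 37 C; live-cell protease signal measured by CellTiter-Fluor fluorescence.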

[20] = qHTS assay to identify small molecule agonists of the estrogen related receptor signaling pathway with the pleiotropic PPARgamma coactivator (PGC) (AID 1224823); conditions: ERR/PGC reporter cell line, luciferase agonist mode; at 92.2 µM (top of the series); note: % is set by controls: 0 for no effect and ±100 for the full control effect
Summary of the method: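 Luminescence readout (One-Glo, 30 min RT) from PGC/ERR cell line treated 18 h at 37 C with pin-tool-delivered DMSO compound solutions; cells plated 6 h before dosing. Quantitative HTS format.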

CC(C)N(CCO)C(C)C
inactive: activity change, negative = cytotoxicity [1] -22.1% | activity, negative = cytotoxic ([2]; at 61 µM (top of the series)) -0.829% | activation [3] 2.56% | activity change, negative = cytotoxicity [4] 13.4% | activity, negative = cytotoxicity [5] 1.36% | activity change, negative = inhibition [6] 5.63% | viability change, negative = cytotoxic [7] -10% | activation ([8]; at 76.8 µM (top of the series)) -7.87% | activity change, negative = cytotoxicity ([9]; at 76.8 µM (top of the series)) 1.19% | activity change, negative = cytotoxicity [10] -1.37% | activation ([11]; at 73.3 µM (top of the series)) -0.179%

Cc1c([N+](=O)[O-])cccc1[N+](=O)[O-]
inactive: activity change, negative = cytotoxicity [1] 5.02% and 0.421% | activity change, negative = inhibition [12] 7.88% and -22.7% | viability change, negative = cytotoxic [13] 8.8% and -7.59% | activity, negative = cytotoxic ([2]; at 61 µM (top of the series)) -5.57% and 4.1% | activation [3] -7.53% and -2.5% | activity change, negative = cytotoxicity [4] 15.8% | activity, negative = cytotoxicity [5] 3.21% and -12.5% | viability change, negative = cytotoxic [7] -4.88% and 4.66% | activation ([8]; at 76.8 µM (top of the series)) -5.03% and -1.65% | activity change, negative = cytotoxicity ([9]; at 76.8 µM (top of the series)) 24.5% and -1.7% | activity change, negative = cytotoxicity [10] 5.73% and 1.42% | activity, negative = inhibition ([14]; at 92.4 µM (top of the series)) -7.78% and 0.0125% | activation ([11]; at 73.3 µM (top of the series)) 0.0043% and -0.0249%

C/C1=C2N=C(/C=C3N=C(/C(C)=C4\[N-][C@@](C)([C@@H]5N=C1[C@](C)(CCC(=O)NC[C@@H](C)OP(=O)([O-])O[C@H]1[C@@H](O)[C@@H](n6cnc7cc(C)c(C)cc76)O[C@@H]1CO)[C@H]5CC(N)=O)[C@@](C)(CC(N)=O)[C@@H]4CCC(N)=O)[C@@](C)(CC(N)=O)[C@@H]\3CCC(N)=O)C(C)(C)[C@@H]/2CCC(N)=O.[C-]#N.[Co+3]
inactive: activity change, negative = cytotoxicity [1] 1.21% | activity change, negative = inhibition [12] 5.9% | viability change, negative = cytotoxic [13] 6.16% | activity, negative = cytotoxic ([2]; at 61 µM (top of the series)) 6.46% | activation [3] -0.105% | activity, negative = cytotoxicity [5] -12.3% [at 42.5 µM] | viability change, negative = cytotoxic [7] 1.75% [at 35.3 µM] | activation ([8]; at 35.3 µM (top of the series)) -0.628% | activity change, negative = cytotoxicity ([9]; at 35.3 µM (top of the series)) -2.68% | activity, negative = inhibition ([14]; at 42.5 µM (top of the series)) -7.58%

CN(C)CCCl
inactive: activity, negative = cytotoxicity [5] 1.5% | activity change, negative = inhibition [6] -1.44% | viability change, negative = cytotoxic [7] 3.4% | activation ([8]; at 76.8 µM (top of the series)) 0.991% | activity change, negative = cytotoxicity [10] 2.82% | activity, negative = inhibition ([14]; at 92.4 µM (top of the series)) 2.55%

O=[N+]([O-])c1cccc([N+](=O)[O-])c1
inactive: activity, negative = cytotoxic ([2]; at 78.8 µM (top of the series)) -2.55% | activity, negative = cytotoxicity [5] -12.3% | activity change, negative = inhibition [6] 44.1% | viability change, negative = cytotoxic [7] 1.01% | activity change, negative = cytotoxicity ([9]; at 76.8 µM (top of the series)) 12.7% | activity change, negative = cytotoxicity [10] 4.38% | activity, negative = inhibition ([14]; at 92.4 µM (top of the series)) -3.98% | activation ([11]; at 94.8 µM (top of the series)) -1.54% | viability change, negative = cytotoxic [15] 3.59% | activity change, negative = inhibition [16] 3.47% | activation [17] -5.05% | activity change, negative = inhibition [18] -4.63% | viability change, negative = cytotoxic [19] 0.782% | activation [20] -1.77%

Reference: PubChem BioAssay (Tox21)
